Target: PTEFb (Homo sapiens+)
Assay: GFP IP-MS and GFP IP western blot of GFP-tagged BRD4 constructs
Type: binding
Conditions: GFP-tagged; Dox 50 nM 2 days

**Q.** With “CTM: GFP-tagged CTM-only construct, peptide of 37 residues (ELARKREQERRRREAMAATIDMNFQSDLLSIFEENLF; left off: large carriers)” as the substance, how does the “interaction with PTEFb (GFP IP-MS)” value read?
**A.** The value was “cannot pull down PTEFb”.
